Measurements: patent US20190241639A1 (ZHEJIANG DOER BIOLOGICS, published 2019)

Target: GLP-2 receptor
Assay: cell-based or functional assay

Binder	EC50 (nM), luciferase reporter gene assay in GLP-2R/Luc-CHO cells [nM]
GLP-2 mutant fusion protein SEQ ID NO:27 (Fc fusion) HGDGSFSDEMNTILDNLAARDFINWLIQTKNGGPSSGAPPPSGGGGSGGGGSESKYGPPCPPCPAPEFLGGPSVFLFPPKPKDTLMISRTPEVTCVVVDVSQEDPEVQFNWYVDGVEVHNAKTKPREEQFASTYRVVSVLTVLHQDWLNGKEYKCKVSNKGLPSSIEKTISKAKGQPREPQVYTLPPSQEEMTKNQVSLTCLVKGFYPSDIAVEWESNGQPENNYKTTPPVLDSDGSFFLYSRLTVDKSRWQEGNVFSCSVMHEALHNHYTQKSLSLSLG	92.1
GLP-2 mutant fusion protein SEQ ID NO:28 (Fc fusion) HGDGSFSDEMNTILDNLAARDFINWLINGGPSSGAPPPSGGGGSGPAGPNESKYGPPCPPCPAPEFLGGPSVFLFPPKPKDTLMISRTPEVTCVVVDVSQEDPEVQFNWYVDGVEVHNAKTKPREEQFASTYRVVSVLTVLHQDWLNGKEYKCKVSNKGLPSSIEKTISKAKGQPREPQVYTLPPSQEEMTKNQVSLTCLVKGFYPSDIAVEWESNGQPENNYKTTPPVLDSDGSFFLYSRLTVDKSRWQEGNVFSCSVMHEALHNHYTQKSLSLSLG	23.2
